The entries are a selection whose mix differs from that of the whole data set. The source made the active and inactive calls. No stated cut-off is given here; in the data, active means inhibition above about 35% (passing the limit was not always enough); inactive means the rest.

By UniProt entry, the sequences of proteins in these tests, tags left out.
UniProt P11940, whole entry: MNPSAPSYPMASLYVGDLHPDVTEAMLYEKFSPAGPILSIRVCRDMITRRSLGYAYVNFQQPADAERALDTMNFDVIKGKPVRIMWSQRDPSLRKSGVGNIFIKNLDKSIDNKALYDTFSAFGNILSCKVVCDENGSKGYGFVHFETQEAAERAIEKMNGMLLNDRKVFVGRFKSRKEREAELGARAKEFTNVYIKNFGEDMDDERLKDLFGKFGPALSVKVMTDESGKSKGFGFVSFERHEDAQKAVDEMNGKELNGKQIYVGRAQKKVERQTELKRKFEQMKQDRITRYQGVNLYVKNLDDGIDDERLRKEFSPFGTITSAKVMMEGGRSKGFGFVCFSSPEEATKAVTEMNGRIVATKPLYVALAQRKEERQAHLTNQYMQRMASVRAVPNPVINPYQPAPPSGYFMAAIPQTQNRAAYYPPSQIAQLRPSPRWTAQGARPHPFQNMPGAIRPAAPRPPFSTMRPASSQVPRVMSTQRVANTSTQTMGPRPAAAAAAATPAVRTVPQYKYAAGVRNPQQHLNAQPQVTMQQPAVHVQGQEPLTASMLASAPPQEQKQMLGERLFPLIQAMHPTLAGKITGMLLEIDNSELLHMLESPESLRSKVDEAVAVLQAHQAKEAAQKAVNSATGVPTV

The assay addresses Polyadenylate-binding protein 1 (Homo sapiens) (UniProt P11940). Kind of assay: PAM2 peptide displacement from PABP1 MLLE – biochemical, fluorescence polarization, FITC-PAM2, GST-MLLE, primary screen (AID 588489).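 Further: plate controls were DMSO wells with GST-MLLE for no effect and wells lacking GST-MLLE protein for full effect.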 As to conditions: at 20 µM, stronger effect = higher value.
`O=C(NCC1(N2CCCCC2)CCCCC1)c1cccc([N+](=O)[O-])c1`: the inhibition was inactive: -14.3%.
Under `CSc1ccc(C(=O)NCC2(N3CCOCC3)CCCCC2)cc1` stands inactive: 12.6%; under `CCN1CCC(Nc2ccc(Cl)cc2)CC1`, inactive: -16.4%; under `O=c1[nH]c2ccccc2n1C1CCN(C(c2ccccc2OC(F)(F)F)c2nnnn2C2CCCC2)CC1` (stereo not given), inactive: 5.4%.
Next, `N#CC1(Nc2ccccc2)CCN(CCc2ccccc2)CC1`: inactive: 0.48%; `CC(C)(C)n1nnnc1C(c1ccccc1OC(F)(F)F)N1CCC(n2c(=O)[nH]c3ccccc32)CC1` (stereo not given): inactive: 9.23%; `O=C(NCC1(N2CCCCC2)CCCCC1)c1ccc(OC(F)F)cc1`: inactive: -14.1%.
Next, `CC(C)c1ccc(C(=O)NCC2(N3CCOCC3)CCCCC2)cc1`: inactive: 0.19%; `COc1ccc(NC2CCN(C(=O)OC(C)(C)C)CC2)cc1`: inactive: 6.75%; `CN1CCN(CCOC(=O)C(O)(c2ccccc2)c2ccccc2)CC1`: inactive: 7.48%.
Turning to `CCCCn1nnnc1C(c1cccc2ccccc12)N1CCC(n2c(=O)[nH]c3ccccc32)CC1` (stereo not given), the inhibition is inactive: -4.27%.
Consider `O=C(NCC1(N2CCOCC2)CCCCC1)c1cc(=O)[nH]c2ccccc12`, for which the inhibition is inactive: -2.43%.
Consider `COc1cc(C(=O)NCC2(N3CCCCC3)CCCCC2)ccc1OC(F)F`, for which the inhibition is inactive: -85.5%.
`O=C(NCC1(N2CCCCC2)CCCCC1)c1cccc(C(F)(F)F)c1`: the inhibition was inactive: -3.48%.
Next, `CCCCn1nnnc1C(c1ccnc2ccccc12)N1CCC(n2c(=O)[nH]c3ccccc32)CC1` (stereo not given): inactive: 1.5%; `COc1cc(OC)c(C(=O)NCC2(N(C)C)CCCCC2)cc1OC`: inactive: -6.99%; `CCC(c1nnnn1C(C)(C)C)N1CCC(n2c(=O)[nH]c3ccccc32)CC1` (stereo not given): inactive: 11.2%.
In the case of `O=C(NCC1(N2CCOCC2)CCCCC1)c1cc(F)c(F)cc1Cl`, the inhibition is inactive: 5.35%.
Next, `COc1ccc(CN(CCCl)CCCl)cc1Cl`: inactive: 4.04%; `CN(C)c1cccc(C(=O)NCC2(N3CCCCC3)CCCCC2)c1`: inactive: -1.08%.
Take `CCCCn1nnnc1C(c1ccccc1OC(F)(F)F)N1CCC(n2c(=O)[nH]c3ccccc32)CC1` (stereo not given): the inhibition is inactive: 15.5%.
Next, `CC(C)c1ccc(NC2CCN(C(=O)OC(C)(C)C)CC2)cc1`: inactive: 0%; `Cc1ccc(C(=O)NCC2(N(C)C)CCCCC2)o1`: inactive: 5.79%.
Next, `CCCOc1ccc(C(=O)NCC2(N(C)C)CCCCC2)cc1OC`: inactive: 13.8%; `COc1ccc(C(c2nnnn2C2CCCC2)N2CCC(n3c(=O)[nH]c4ccccc43)CC2)cc1` (stereo not given): inactive: 5.88%.
Regarding `CN1CCC(Nc2cccc(F)c2)CC1`, the inhibition is inactive: 11.2%.
For the molecule `O=C(NCC1(N2CCCCC2)CCCCC1)c1cncc(Br)c1`, the inhibition was inactive: 6.69%.
For the molecule `CSc1ccccc1C(=O)NCC1(N2CCCCC2)CCCCC1`, the inhibition was inactive: -15.1%.
Next, `Cc1cccc(NC2(C#N)CCN(Cc3ccccc3)CC2)c1`: inactive: 17.1%.
Under `O=C(NCC1(N2CCCCC2)CCCCC1)c1ccc(=O)[nH]c1` stands inactive: -6.25%.
Next, `O=C(NCC1(N2CCCCC2)CCCCC1)c1cccs1`: inactive: -34.7%; `CCCCn1nnnc1C(CC)N1CCC(n2c(=O)[nH]c3ccccc32)CC1` (stereo not given): inactive: -5.13%; `CCCCn1nnnc1C(c1cccs1)N1CCC(n2c(=O)[nH]c3ccccc32)CC1` (stereo not given): inactive: -3.59%.
In the case of `COc1ccc(C(=O)NCC2(N3CCCCC3)CCCCC2)cc1`, the inhibition was inactive: -6.19%.
Regarding `CC(C)(C)OC(=O)N1CCC(N(C(=O)c2ccccc2)c2ccc(F)cc2)CC1`, the inhibition is inactive: -4.81%.
Next, `COc1ccc(C(=O)NCC2(N3CCCCC3)CCCCC2)c(OC)c1OC`: inactive: -4.68%; `CCC(c1nnnn1C1CCCC1)N1CCC(n2c(=O)[nH]c3ccccc32)CC1` (stereo not given): inactive: -10.1%.
Next, `CCOC(=O)N1CCC(Nc2ccc(OC)cc2)CC1`: inactive: 4.46%.
For `CCCCn1nnnc1C(c1ccc(OC)cc1)N1CCC(n2c(=O)[nH]c3ccccc32)CC1` (stereo not given), the inhibition was inactive: -11.8%.
`O=C(NCC1(N2CCCCC2)CCCCC1)c1ccc(Cl)s1`: the inhibition is inactive: 1.55%.
Regarding `N#CC1(Nc2ccccc2)CCN(Cc2ccccc2)CC1`, the inhibition was inactive: 17.3%.
Under `O=c1[nH]c2ccccc2n1C1CCN(C(c2cc3ccccc3o2)c2nnnn2C2CCCCC2)CC1` (stereo not given) stands inactive: -5.95%.
Under `O=C(OC1CN2CCC1CC2)C1c2ccccc2Oc2ccccc21` (stereo not given) stands inactive: 30.2%; under `COc1ccc(Cl)cc1C(=O)NCC1(N2CCOCC2)CCCCC1`, inactive: 8.03%; under `O=C(NCC1(N2CCOCC2)CCCCC1)c1cc2ccccc2o1`, inactive: -16%.
Under `O=C(NCC1(N2CCCCC2)CCCCC1)c1ccc(Cl)nc1` stands inactive: -31.3%.
Turning to `O=c1[nH]c2ccccc2n1C1CCN(C(c2ccccc2OC(F)(F)F)c2nnnn2C2CCCCC2)CC1` (stereo not given), the inhibition is inactive: -6.9%.
Take `Cc1cc(C)cc(N(C(=O)c2ccccc2)C2CCN(C(=O)OC(C)(C)C)CC2)c1`: the inhibition is inactive: 11.4%.
Under `CCCCOc1ccc(C(=O)NCC2(N3CCOCC3)CCCCC2)cc1` stands inactive: -5.19%.
Next, `CCCCn1nnnc1C(c1cc2ccccc2o1)N1CCC(n2c(=O)[nH]c3ccccc32)CC1` (stereo not given): inactive: -4.12%; `O=P1(N(CCCl)CCCl)SCCCS1`: inactive: 6.9%; `O=C(NCC1(N2CCCCC2)CCCCC1)c1ccc(F)cc1`: inactive: 8.74%.
For the molecule `CCOC(=O)N1CCC(Nc2ccc(F)cc2)CC1`, the inhibition was inactive: 9.06%.
Under `COc1ccc(NC2CCN(CCc3ccccc3)CC2)c(OC)c1` stands inactive: 17%; under `CCOc1ccc(C)cc1CN(CCCl)CCCl`, inactive: 2.67%.
On to `CC(C)(C)n1nnnc1C(c1ccccc1)N1CCC(n2c(=O)[nH]c3ccccc32)CC1` (stereo not given), for which the inhibition is inactive: 11.2%.
Under `O=C1CCN(Cc2ccccc2)CC1` stands inactive: -3.16%.
Under `O=c1[nH]c2ccccc2n1C1CCN(C(c2cccc3ccccc23)c2nnnn2C2CCCC2)CC1` (stereo not given) stands inactive: 1.34%.
Take `CCOC(=O)N1CCC(Nc2cccc(C)c2)CC1`: the inhibition was inactive: -7.18%.
As for `COc1cc(C(=O)NCC2(N(C)C)CCCCC2)ccc1OC(F)F`, the inhibition is inactive: -5.68%.

For the origin of these results see PubChem BioAssay AID588489 (Sanford-Burnham Center for Chemical Genomics, 2011).
